# Binding of CDR-mutated scFvs to a peptide of the spike HR2 region

From the AlphaSeq antibody data of Engelhart et al. 2022 (doi:10.1038/s41597-022-01779-4), copy in the FLAb collection.

The target is the same throughout: PDVDLGDISGINAS, from the HR2 region of SARS-CoV-2 spike.

Parent: Ab-95, a human scFv built as VH, the linker GGGGSGGGGSGGGGS, VL. Only the CDRs of the light chain vary.
VH: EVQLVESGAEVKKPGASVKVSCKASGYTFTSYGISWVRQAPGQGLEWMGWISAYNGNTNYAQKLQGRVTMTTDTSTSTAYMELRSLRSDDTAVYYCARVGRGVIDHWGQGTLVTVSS
VL: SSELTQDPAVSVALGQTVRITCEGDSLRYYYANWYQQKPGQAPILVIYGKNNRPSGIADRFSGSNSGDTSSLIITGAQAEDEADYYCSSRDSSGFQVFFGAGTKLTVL

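Variants in AAYL52 differ from the parent at up to three CDR positions; double and triple changes were sampled at random. Affinity was read by AlphaSeq, a pooled yeast mating assay with surface-displayed partners. The frequency of each diploid, read from paired DNA barcodes, reflects how well the two displayed proteins bind. Scores were corrected for input abundance and mapped to Kd with protein pairs of known affinity run in the same pool. Each pool was mated in three replicate cultures.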

Variants are written as CDR1, CDR2 and CDR3 of the light chain (limits as in the source). Parent: EGDSLRYYYAN, GKNNRPS, SSRDSSGFQVF.
Values are log10 of the apparent Kd in nM; lower means stronger binding.
"ND" means that the variant was in the library but no mating with the target was seen in that replicate; the authors take this as a sign of poor binding, and no number exists.
Empty control strains, which show no peptide, gave a signal in 28% of pairings with library AAYL52; the median was 3.91 and 95% of these signals were weaker than 2.90. No background was subtracted. For each scFv, signals with the empty controls are counted beside the result.
In this assay the parent's reference entry averaged 2.31; its copy inside this library read 2.25.

Variant EGDSLREYYAN, DKNNRPS, SSRDSSKFQVF showed 3.93, 3.26, 3.00 (controls 0 of 9).
Variant EGDSLRGYYAN, GKNNRPS, LSDDSSGFQVF showed 1.47, 1.23, 1.12 (controls 2 of 9).
Variant EGDSLRYYYAN, GKNGRPV, SSRDSSGFQMF showed ND, 5.28, ND (controls 6 of 9).
Variant EGDSLRYYYAN, GKNNHPQ, SSSDSSGFQVF showed 4.91, 2.85, ND (controls 5 of 9).
Variant EGDSLTYYFAN, GKNNRPS, SSRDSSGFQVF showed 2.58, 2.39, 2.29 (controls 2 of 9).
Variant EGASLRYYYAN, GKNNRPS, SSRDSSGFQVF showed 1.91, 1.89, 1.41 (controls 2 of 9).
Variant EGDSLRYWYAN, GKNNNCS, SSRDSSGFQVF showed ND, ND, ND (controls 0 of 9).
Variant EGDSADYYYAN, GKENRPS, SSRDSSGFQVF showed ND, 5.17, ND (controls 3 of 9).
Variant EGDSLYYYYAS, GKNNRPS, SSRDSSGFAVF showed 2.37, 2.72, 2.29 (controls 0 of 9).
Variant EGDSLRYYYHN, GKYNRPS, SSRGSSGFQVF showed ND, ND, ND (controls 1 of 9).
Variant EGDSLRYYYAW, GKNNRPS, MSRDSSGFQRF showed 3.89, 4.75, 4.13 (controls 3 of 9).
Variant EGDSARYYYAN, GKNNSPH, SSRDSSGFQVF showed ND, ND, 4.16 (controls 3 of 9).
Variant EGDSLRYYYAN, GKNYRPS, SSRMSSGFQVT showed 2.74, 2.91, 2.45 (controls 4 of 9).
Variant EGDSLRYYYAN, GKNNRPS, SSRDSSGNFVM showed ND, 3.34, ND (controls 1 of 9).
Variant MGDDLRYYYAN, NKNNRPS, SSRDSSGFQVF showed 3.47, 4.36, ND (controls 1 of 9).
Variant EFNSLRYYYAN, GKNNRIS, SSRDSSGFQVF showed 3.95, 4.77, ND (controls 1 of 9).
Variant GGDSLRYYYAN, GKNNRPK, SSRDSSGFTVF showed 2.78, 3.80, 1.97 (controls 2 of 9).
Variant EGDSLEYYYAN, GKFNRPS, SSRFSSGFQVF showed 4.17, 4.01, ND (controls 4 of 9).
Variant EGDSLRYIYAN, GKNNRPS, SSRDSSGGQVY showed 3.42, 3.74, 2.98 (controls 1 of 9).
Variant EGDSLRYYYAN, GKNNRPS, QSRDLSKFQVF showed ND, ND, ND (controls 0 of 9).
Variant EKDSLRYYYAN, AKNNRMS, SSRDSSGFQVF showed 5.66, 3.99, ND (controls 5 of 9).
Variant EGDSLRYYYAN, GKNSRPS, SSRDSLGFQVF showed 3.09, 3.01, 2.71 (controls 3 of 9).
Variant VGDSLRYYYAN, GKNNRPS, SSRDSEGYQVF showed 2.59, 2.51, 2.86 (controls 3 of 9).
Variant EADSLRYFYAN, GKNNRPS, SSRDSSGFQVF showed ND, ND, 3.44 (controls 2 of 9).
Variant EGDSPRYYYAN, GKNNRPK, SSWDSSGFQVF showed 3.54, ND, ND (controls 1 of 9).
Variant EGDSLRYYYAN, GKNPDPS, SSRDSGGFQVF showed 3.87, ND, ND (controls 2 of 9).
Variant YGDSKRYYYAN, GKNNRPS, SSRLSSGFQVF showed 1.81, 1.67, 1.26 (controls 2 of 9).
Variant EGDSLRYMYAN, WKNNRPS, SSRDSSGFQMF showed 2.77, ND, ND (controls 4 of 9).
Variant EGDSLRHYYAN, GKNNRDS, SSEDSSGFQVF showed ND, ND, ND (controls 1 of 9).
Variant EGDSLRYLYAR, GKNNRPS, SSRDSSIFQVF showed 4.79, ND, ND (controls 3 of 9).
Variant EGDSLRYYYAN, GKNNRYT, SQRDSSGFQVF showed 4.91, 3.68, ND (controls 0 of 9).
Variant EGDSLRYYYAN, GKNNRPS, SSTDCVGFQVF showed ND, ND, ND (controls 1 of 9).
Variant EGDSLRYYYAN, GKNKRPD, SSRDSSGCQVF showed 2.69, 2.92, 2.56 (controls 6 of 9).
Variant EGYSLRYYWSN, GKNNRPS, SSRDSSGFQVF showed 3.23, 3.37, 2.22 (controls 0 of 9).
Variant EGDSLRYYIAN, GKNNRPM, DSRDSSGFQVF showed 5.69, 5.93, ND (controls 3 of 9).
Variant EGDSLRYYQAF, GKNNRPS, SSRDSSGFDVF showed ND, ND, ND (controls 1 of 9).
Variant EWDSLRYYYAN, GKNNWPS, SVRDSSGFQVF showed 3.68, 3.41, 4.58 (controls 4 of 9).
Variant EGDSLRWYYAN, GKNNRPS, SSRDRSGFQVF showed 2.66, 2.60, 1.74 (controls 0 of 9).
Variant EGNSARYYYAN, GKNNRPS, SSRDSSGFQVA showed 3.01, 3.16, 2.89 (controls 2 of 9).
Variant EGDSERSYYAN, GKNNRPS, SSRDSSVFQVF showed ND, ND, ND (controls 3 of 9).
Variant EGDSLRYYGAN, GKHNRPS, SSRDSSGFQVF showed 2.15, 1.96, 1.28 (controls 3 of 9).
Variant EMDSLRDYYAN, GKNNRPS, SSRDSHGFQVF showed ND, ND, ND (controls 1 of 9).
Variant EGRSLRYYYAN, GKNARPS, SVRDSSGFQVF showed 2.51, 2.68, 2.15 (controls 4 of 9).
Variant SFDSLRYYYAQ, GKNNRPS, SSRDSSGFQVF showed ND, ND, ND (controls 0 of 9).

For reference, 7 entries of the list once more:

{"CDR-L1": "EGDSARYYYAN", "CDR-L2": "GKNNSPH", "CDR-L3": "SSRDSSGFQVF", "log10 Kd (nM) by replicate": "ND, ND, 4.16", "empty controls": "3 of 9"}
{"CDR-L1": "EGASLRYYYAN", "CDR-L2": "GKNNRPS", "CDR-L3": "SSRDSSGFQVF", "log10 Kd (nM) by replicate": "1.91, 1.89, 1.41", "empty controls": "2 of 9"}
{"CDR-L1": "EGDSLREYYAN", "CDR-L2": "DKNNRPS", "CDR-L3": "SSRDSSKFQVF", "log10 Kd (nM) by replicate": "3.93, 3.26, 3.00", "empty controls": "0 of 9"}
{"CDR-L1": "EGDSLRYWYAN", "CDR-L2": "GKNNNCS", "CDR-L3": "SSRDSSGFQVF", "log10 Kd (nM) by replicate": "ND, ND, ND", "empty controls": "0 of 9"}
{"CDR-L1": "EGDSLYYYYAS", "CDR-L2": "GKNNRPS", "CDR-L3": "SSRDSSGFAVF", "log10 Kd (nM) by replicate": "2.37, 2.72, 2.29", "empty controls": "0 of 9"}
{"CDR-L1": "EGDSPRYYYAN", "CDR-L2": "GKNNRPK", "CDR-L3": "SSWDSSGFQVF", "log10 Kd (nM) by replicate": "3.54, ND, ND", "empty controls": "1 of 9"}
{"CDR-L1": "SFDSLRYYYAQ", "CDR-L2": "GKNNRPS", "CDR-L3": "SSRDSSGFQVF", "log10 Kd (nM) by replicate": "ND, ND, ND", "empty controls": "0 of 9"}